Assay outcomes deposited in PubChem BioAssay by National Center for Advancing Translational Sciences (NCATS).
The list is not random: actives were taken first. Their share in the collection is about 16%.
miR-21 reporter: miR-21 reporter, rising signal; HeLa miR-21 FLuc reporter, luciferase, 48 h; Potency, µM (top dose mostly 38.3 µM), without a hit: at the top dose reporter change, positive = more light; 340,000 tested, under 10 active; active = well fitted rising curve with a large enough effect; inconclusive = small, poorly fitted or top-dose-only effect; inactive = no such curve, though single readings can be large or run the other way;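 note: % of control where 0% means no effect; miR-21 action dims this reporter so a rising signal means less miR-21 action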
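HeLa miR-21-FLuc reporter line, endogenous miR-21; 2000 cells/well in DMEM/10% FBS; compound titration up to ~40uM final, 48 h, 37 degree Celsius; luciferase detection reagent, 15 min lysis, CCD luminescence.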
uPA generation: cell surface uPA generation inhibition; cell surface uPA generation assay, qHTS; 330,000 compounds, 0.31% hits; AID 540303; Potency, µM (doses to about 38.3 µM), inactives show at the highest dose activity change, negative = inhibition, usual class: inhibitors; active = well fitted inhibition curve with a large enough effect; inconclusive = small, poorly fitted or top-dose-only effect; inactive = no such curve, though single readings can be large or run the other way; tested in mouse RAW 264.7 cells; also: potency is read from the fitted curve at half-maximal effect; % is scaled to controls: 0 for no effect and ±100 for the full control effect; nearly all actives have a fitted effect of over 55% in size
DT40 TDP1 no CPT: qHTS for Inhibitors of human tyrosyl-DNA phosphodiesterase 1 (TDP1): qHTS in cells in absence of CPT. AID 686978, 2013. DT40 Tdp1-/- hTDP1 cells, no CPT, ATP luminescence, 48 h. 420,000 compounds, 15% hits. Potency, µM (highest dose often 46.2 µM), inactives show at the highest dose activity change, negative = growth inhibition, most hits filed as inhibitors; also: potency is read from the fitted curve at half-maximal effect; % is scaled to controls: 0 for no effect and ±100 for the full control effect; nearly all actives have a fitted effect of over 55% in size
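Chicken DT40 Tdp1-/- cells stably complemented with human TDP1 were seeded at 400 cells/well with DMSO in place of 20 nM camptothecin. After compound pinning, cells grew at least 48 hr at 37 °C; viability read by CellTiter-Glo luminescence.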
TDP1 block: blocks human tyrosyl-DNA phosphodiesterase 1. recombinant TDP1, AlphaScreen DNA substrate cleavage. Potency, µM (highest dose often 130 µM), for the others: at the highest dose activity change, negative = inhibition, usual class: inhibitors. 350,000 compounds, 0.28% hits; also: potency is read from the fitted curve at half-maximal effect; % is scaled to controls: 0 for no effect and ±100 for the full control effect; nearly all actives have a fitted effect of over 40% in size
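Here, a 5' biotin and 3' phosphotyrosine-FITC DNA oligonucleotide reports Tdp1 activity: intact substrate bridges AlphaScreen beads, while cleavage leaves a 3' phosphate and drops signal. All incubations at room temperature.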
TDP1 cell CPT: growth inhibition of DT40 Tdp1-/-;hTDP1 cells with camptothecin (screen for TDP1 inhibitors); AID 686979; Potency, µM (series often up to 46.2 µM), for inactives: top-dose activity change, negative = growth inhibition, most hits filed as inhibitors; 420,000 compounds, 12% hits; chicken DT40 Tdp1-/-;hTDP1 cells + 20 nM CPT, ATP luminescence, 48 h; also: potency is read from the fitted curve at half-maximal effect; % is scaled to controls: 0 for no effect and ±100 for the full control effect; nearly all actives have a fitted effect of over 55% in size
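Chicken DT40 Tdp1-/- cells stably complemented with human TDP1 were seeded at 400 cells/well in medium containing 20 nM camptothecin, exposed to pin-transferred compounds, and grown at 37 °C for at least 48 hr. Viability was read as ATP luminescence.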
An asterisk follows results filed as active; ? = inconclusive; / = not tested or not shown; [ ] = dose if it differs, or a comment. Unless noted, calls follow the shape of the dose curve; as a rule, active = well fitted curve in the direction sought with a large enough effect; inconclusive = small, poorly fitted or top-dose-only effect, or another doubt; inactive = no such curve, though single readings can be large; an effect the other way counts as inactive or inconclusive.

SMILES | miR-21 reporter | uPA generation | DT40 TDP1 no CPT | TDP1 block | TDP1 cell CPT
Cc1cc(=O)oc2c(C(=O)/C=C/c3ccccc3)c(O)ccc12 | -2% | -3% | ? | -1% | 4%
COc1ccc(/C=C/C(=O)c2c(O)c(OC)c3occc3c2OC)cc1OC | / | / | 10µM* | / | 11µM*
COc1ccc(/C=C\C(=O)c2c(O)ccc3c(C)cc(=O)oc23)cc1OC | ? | ? | 23µM* | 7% | 16µM*
O=C(NC1CCCC1)C(c1ccc(F)cc1)N(C(=O)c1csnn1)C1CCCC1 (stereo unspecified) | 0% | 2% | -10% | 1%[0.0935 µM] | 4%
COc1ccc(C2=NS(=O)(=O)N(C)C(C(=O)Nc3ccc(OC)c(OC)c3)=C2)cc1 | 7% | -18% | 16µM* | / | ?
COc1cccc(C2=NS(=O)(=O)N(C)C(C(=O)Nc3cccc(O)c3)=C2)c1 | 9% | / | 16µM* | 14% | 15µM*
COc1ccc(NC(=O)C2=CC(c3ccc(C)cc3)=NS(=O)(=O)N2C)cc1OC | 7% | -9% | 21µM* | / | 23µM*
COc1ccc(NC(=O)C2=CC(c3ccco3)=NS(=O)(=O)N2C)cc1OC | -7% | -12% | -10% | 6% | 8%
COc1ccc(C2=NS(=O)(=O)N(C)C(C(=O)Nc3cc(C)ccc3O)=C2)cc1OC | 12% | -5% | 5.2µM* | 6% | 7.3µM*
CCc1ccccc1NC(=O)C1=CC(c2ccc(OC)c(OC)c2)=NS(=O)(=O)N1C | 5% | 1% | -14% | -6% | -29%
O=c1c2c3c(sc2ncn1/N=C/c1ccc(Br)o1)CCCC3 | -5% | 0% | -15% | 5% | -4%
O=C(OCN1C(=O)c2ccccc2C1=O)c1cccs1 | -2% | -1% | ? | 2% | 1%
Cc1c(NC2=CC(=O)CC(C)(C)C2)c(=O)n(-c2ccccc2)n1C | -1% | 2% | -21% | 5% | 16%
Cc1ccc(NC(=O)C2=CC(c3ccc4c(c3)OCO4)=NS(=O)(=O)N2C)cc1 | 1% | / | -20% | 11% | 1%
CC(=O)c1cccc(NC(=O)C2=CC(c3ccc4c(c3)OCO4)=NS(=O)(=O)N2C)c1 | -4% | 1% | 16µM* | 4% | ?
CC(=O)c1ccc(NC(=O)C2=CC(c3ccco3)=NS(=O)(=O)N2C)cc1 | -32% | -15% | -3% | 4% | -11%
COc1ccc(NC(=O)C2=CC(c3ccc(C)cc3)=NS(=O)(=O)N2C)cc1 | 11% | 4% | 23µM* | / | 16µM*
COc1ccc(C2=NS(=O)(=O)N(C)C(C(=O)Nc3cc(OC)c(OC)c(OC)c3)=C2)cc1 | 6% | -2% | 15µM* | 7% | 12µM*
COc1ccc(CNC(=O)C2=CC(c3cccc(OC)c3)=NS(=O)(=O)N2C)cc1 | 17% | / | 9% | 3% | 8%
COc1ccc(C2=NS(=O)(=O)N(C)C(C(=O)Nc3ccc(C(C)=O)cc3)=C2)cc1OC | 29% | -6% | 12µM* | 5% | 18µM*
O=C(CCCl)Nc1nnc(SCC(=O)NC2CCCC2)s1 | 17% | -15% | 3.3µM* | 10% | 3.3µM*
CC1CCN(Cc2c(O)ccc3c(=O)c(-c4cccc(Cl)c4)c(C(F)(F)F)oc23)CC1 | 0% | / | 20% | 3% | 1%
Cc1cc([N+](=O)[O-])ccc1NC(=O)CN1C2CCC1CC(NC(=O)NC13CC4CC(CC(C4)C1)C3)C2 (stereo unspecified) | 5% | -6% | 5.2µM* | -1% | 15µM*
COc1ccc(NC(=S)N2C3CCC2CC(NC(=O)NC24CC5CC(CC(C5)C2)C4)C3)c(OC)c1 (stereo unspecified) | -3% | 6% | ? | 3% | ?
O=c1cc(O)c2sc(Nc3ccc(F)c(Cl)c3)nc2[nH]1 | -5% | 2% | 3.7µM* | 5% | 3.3µM*

Rewritten as comma-separated lines: two of the compounds above
SMILES,miR-21 reporter,uPA generation,DT40 TDP1 no CPT,TDP1 block,TDP1 cell CPT
Cc1cc(=O)oc2c(C(=O)/C=C/c3ccccc3)c(O)ccc12,-2%,-3%,?,-1%,4%
COc1ccc(/C=C/C(=O)c2c(O)c(OC)c3occc3c2OC)cc1OC,/,/,10µM*,/,11µM*

Single records, as listed above. Order of screens: miR-21 reporter | uPA generation | DT40 TDP1 no CPT | TDP1 block | TDP1 cell CPT
Results for COc1ccc(C2=NS(=O)(=O)N(C)C(C(=O)Nc3ccc(C(C)=O)cc3)=C2)cc1OC = 29% | -6% | 12µM* | 5% | 18µM*
Results for O=C(OCN1C(=O)c2ccccc2C1=O)c1cccs1 = -2% | -1% | ? | 2% | 1%
Results for COc1cccc(C2=NS(=O)(=O)N(C)C(C(=O)Nc3cccc(O)c3)=C2)c1 = 9% | / | 16µM* | 14% | 15µM*
Results for COc1ccc(/C=C\C(=O)c2c(O)ccc3c(C)cc(=O)oc23)cc1OC = ? | ? | 23µM* | 7% | 16µM*

Later entries.
SMILES | miR-21 reporter | uPA generation | DT40 TDP1 no CPT | TDP1 block | TDP1 cell CPT
COc1ccc(Nc2nc(C)cc(=O)[nH]2)cc1 | -3% | 0% | -6% | -2% | -4%
O=c1cc(O)c2sc(Nc3ccc(Cl)c(F)c3)nc2[nH]1 | -23% | -1% | 4.6µM* | / | 5.2µM*
COc1ccc(Nc2nc3[nH]c(=O)cc(O)c3s2)cc1 | -9% | 2% | 18µM* | 7% | 12µM*
CC(=O)c1ccc(NC(=O)CSc2nc3[nH]c(=O)cc(O)c3s2)cc1 | / | 5% | ? | / | ?
Cc1cc(N2CCN(C)CC2)nc2ccc(NC(=O)Nc3ccc(F)cc3)cc12 | -15% | / | ? | -6% | ?
COc1cc(C(=O)Nc2ccc3nc(N4CCN(C)CC4)cc(C)c3c2)cc(OC)c1OC | -16% | ? | ? | / | ?
Cc1cc(C)cc(NC(=O)Nc2ccc3nc(N4CCN(C)CC4)cc(C)c3c2)c1 | -5% | / | 21µM* | 1% | 23µM*
COc1cccc(NC(=O)Nc2ccc3nc(N4CCN(C)CC4)cc(C)c3c2)c1 | -28% | / | 15µM* | -1% | ?
Cc1cc(N2CCN(C)CC2)nc2ccc(NC(=O)c3ccc(Br)o3)cc12 | -50% | -2% | 18µM* | 2% | ?
CCN1CCN(c2cc(C)c3cc(NC(=O)/C=C/c4cccc(OC)c4OC)ccc3n2)CC1 | -34% | / | ? | 6% | ?
COc1cccc(/C=C/C(=O)Nc2ccc3nc(N4CCN(C)CC4)cc(C)c3c2)c1OC | -37% | / | 5.2µM* | 12% | 6.5µM*
COc1cc(NC(=O)Cn2cnc(C(=O)Nc3ccc(C)c(C)c3)n2)cc(OC)c1OC | / | -2% | -13% | -1%[56.1 µM] | -13%
COc1ccc(NC(=O)C2CCC(CNc3c(N4CCCCC4)c(=O)c3=O)CC2)cc1OC (stereo unspecified) | -4% | 6% | 7% | 4% | -11%
Cc1ccn2cc(CCNC(=O)C3CC=CCC3C(=O)O)nc2c1 (stereo unspecified) | -28% | -1% | -33% | / | -4%
O=C(c1cnc2n(c1=O)CCS2)N1CCN(C(c2ccccc2)c2ccc(Cl)cc2)CC1 (stereo unspecified) | 16% | 2% | 21µM* | 5% | 12µM*
O=C(c1cnc2n(c1=O)CCS2)N1CCN(c2ccccc2Cl)CC1 | -2% | / | / | / | /
COc1ccc(CC(=O)N2CCN(c3ccccc3)CC2)cc1OC | 0% | -1% | ? | / | -22%
Cc1ccc(-c2nnc(SCC(=O)N/N=C/c3ccc(C)s3)n2-c2ccc(C)cc2)cc1 | -11% | 2% | 29µM* | 0% | ?
CCOC(=O)C(CC)Sc1cc(C)nc2ccc(OC)cc12 (stereo unspecified) | 4% | -2% | ? | 2% | ?
CN1CCN(C(=O)CCCN2C(=O)/C(=C/c3ccccc3)SC2=S)CC1 | ? | -3% | 16µM* | 0% | 18µM*
